Measured values reported in ChEMBL document CHEMBL4130501, “Nature-based molecules combined with rivastigmine: A symbiotic approach for the synthesis of new agents against Alzheimer's disease” (Eur J Med Chem, 2017).

The chains behind the UniProt entries cited, without tags or fusion partners.
UniProt P06276, whole entry: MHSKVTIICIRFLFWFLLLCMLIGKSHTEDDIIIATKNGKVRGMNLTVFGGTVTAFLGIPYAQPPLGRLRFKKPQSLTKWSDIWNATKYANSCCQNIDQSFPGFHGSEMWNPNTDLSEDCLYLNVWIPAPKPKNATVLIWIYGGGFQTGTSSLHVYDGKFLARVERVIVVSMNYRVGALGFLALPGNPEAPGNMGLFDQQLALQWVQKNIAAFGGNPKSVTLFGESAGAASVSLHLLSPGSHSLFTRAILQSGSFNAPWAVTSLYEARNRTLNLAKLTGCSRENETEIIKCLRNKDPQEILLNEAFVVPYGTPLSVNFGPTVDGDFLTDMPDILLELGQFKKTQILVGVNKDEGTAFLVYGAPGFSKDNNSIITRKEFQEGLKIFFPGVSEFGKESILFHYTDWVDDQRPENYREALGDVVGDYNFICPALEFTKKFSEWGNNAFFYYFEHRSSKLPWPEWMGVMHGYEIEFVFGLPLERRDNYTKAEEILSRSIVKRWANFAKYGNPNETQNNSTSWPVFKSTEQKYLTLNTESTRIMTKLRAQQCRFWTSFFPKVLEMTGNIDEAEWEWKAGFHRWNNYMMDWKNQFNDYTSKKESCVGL

Molecular target: Cholinesterase (Homo sapiens, UniProt P06276)
Test: Inhibition of BuChE (unknown origin) pre-incubated for 20 mins before S-Butyrylthiocholine iodide substrate addition by Ellman reagent based spectrophotometry

SMILES: CCN(C)C(=O)Oc1cccc([C@H](C)N(C)C)c1 [RIVASTIGMINE]
- pIC50: 6.17

pIC50: −log10 of the molar value.
